Key:
[1] = test system: phosphorylated Tau (pTau Ser404); assay: Immunofluorescence of p-Tau Ser404 in brain sections; assay type: in vivo, mouse; settings: hippocampus
Protocol: (§1) Immunofluorescence was performed on the brains of euploid and Ts2Cje mice treated with vehicle, and the Ts2Cje group treated with sitagliptin. Brains were placed in 4% paraformaldehyde for 24 hours. Brains were then fixed over the subsequent 48 hours in a 20% sucrose solution. Brain sections were then cut to a thickness of 15 μm using a cryostat (Leica System) and stored in an aqueous solution of PBS containing 0.02% NaN3 at 4° C. until use. Slices thus obtained were mounted on slides and were blocked and permeabilized by blocking solution (10% of normal goat serum and 0.2% Triton X-100 in TBS) for 2 hours. Subsequently, sections were incubated overnight at 4° C. with the following antibodies: GABA receptor α2 (1:500, Synaptic System, #224-103) and gephyrin (1:250, Synaptic System, #147-111), p-Tau Ser404 (1:500, Abcam, #92676), sintaxin-1 (1:250, Genetex, #GTX113559) and PSD95 (1:250, Abcam, #ab18258), BDNF (1:200, Santa Cruz, sc-546).
The following day, the same slices were incubated with a mix of fluorescent secondary antibodies, to evaluate the co-localization of the two proteins, anti-mouse Alexa Fluor 488 nm for gephyrin and anti-rabbit Alexa Fluor 594 nm for GABA α2 (1:1500, Invitrogen, Carlsbad, California, CA, USA) for 2 hours at room temperature. The slices were then washed again and incubated with DAPI nuclear marker (1:10000, Invitrogen, Carlsbad, California, CA, USA). […]

[2] = test system: sintaxin-1, PSD95 and BDNF; assay: Immunofluorescence of sintaxin-1, PSD95 and BDNF in brain sections; assay type: in vivo, mouse; settings: hippocampus
Protocol: as §1
The following day, the same slices were incubated with a mix of fluorescent secondary antibodies, to evaluate the co-localization of the two proteins, anti-mouse Alexa Fluor 488 nm for gephyrin and anti-rabbit Alexa Fluor 594 nm for GABA α2 (1:1500, Invitrogen, Carlsbad, California, CA, USA) for 2 hours at room temperature. The slices were then washed again and incubated with DAPI nuclear marker (1:10000, Invitrogen, Carlsbad, California, CA, USA). To subtract the non-specific background signal created by the secondary antibody, some sections were incubated only with the secondary antibody. Finally, the sample was sealed with a cover slip via fluorimount (Sigma-Aldrich, St Louis, MO, USA). The acquisition and analysis of brain sections was carried out using Leica TCS SP5× confocal microscopy and ImageJ analysis software.

For `N[C@@H](CC(=O)N1CCn2c(nnc2C(F)(F)F)C1)Cc1cc(F)c(F)cc1F` [sitagliptin, (R)-4-oxo-4-[3-(trifluoromethyl)-5,6-dihydro[1,2,4]triazole[4,3-a]pyrazin-7(8H)-yl]-1-(2,4,5-trifluorophenyl)butan-2-amine], the “phosphorylated Tau (Ser404) levels” value [1] was “reduction”, the BDNF levels [2] was “increase” and the PSD95 levels [2] was “increase”. For the same molecule, the sintaxin-1 levels [2] was “increase”.
